This is a sample that favours compounds with a hit; in the whole collection about 3.7% have one here.
miR-21 FLuc = raises the signal of a miR-21 reporter; HeLa miR-21 FLuc reporter, luciferase, 48 h; Potency, µM (top dose mostly 38.3 µM), for inactives: at the highest dose reporter change, positive = more light; AID 2288; 340,000 tested, under 10 active; active = well fitted rising curve with a large enough effect; inconclusive = small, poorly fitted or top-dose-only effect; inactive = no such curve, though single readings can be large or run the other way;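 note: % of control where 0% means no effect; miR-21 action dims this reporter so a rising signal means less miR-21 action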
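Using DMEM plus 10% FBS, HeLa miR-21-FLuc cells are incubated with test compounds (final up to about 40uM) for 48 hours; firefly luciferase signal is then imaged following reagent-mediated lysis.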
Nrf2 block = Nrf2 pathway inhibition; A549 ARE-Fluc reporter, luciferase luminescence, 18-24 h; Potency, µM (highest dose often 46 µM), for the others: at the highest dose activity change, negative = inhibition, actives largely listed as inhibitors; hit rate 2.1% among 360,000; AID 504444; also: potency is read from the fitted curve at half-maximal effect; % is scaled to controls: 0 for no effect and ±100 for the full control effect; nearly all actives have a fitted effect of over 60% in size
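Concentration-response testing used A549 ARE_Fluc cells at 5000 cells/well. Following an 18-24 h compound incubation, viability was read by fluorescence (Ex 405/Em 525) and luciferase output by luminescence.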
ClpP mod = qHTS Assay for Activators of ClpP | purified B. subtilis ClpP, FRET peptide cleavage, 20 min | Potency, µM (top dose mostly 57.5 µM), inactives show at the top dose activity change, negative = active | hit rate 1.9% among 340,000 | AID 651965, 2013; active = well fitted falling curve with a large enough effect; inconclusive = small, poorly fitted or top-dose-only effect; inactive = no such curve, though single readings can be large or run the other way; also: potency is read from the fitted curve at half-maximal effect; the source files actives as falling curves though it sought activators and does not explain the sign; nearly all actives have a fitted effect of over 65% in size
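FRET quenching reversal measured ClpP activation: 10 microg/mL B. subtilis ClpP at pH 8 with the FRET-FV decapeptide, read at 430 nm after 320 nm excitation. The 20-min minus 0-min signal was scaled between DMSO/no-enzyme wells and ADEP (5.8 microM final).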
Nrf2 activator = activators of Nrf2 (ARE) signaling | AREc32 ARE-luciferase reporter (MCF7-derived line), luminescence, 24 h | Potency, µM (titrated, usually from 46.1 µM), without a hit: top-dose activation, actives largely listed as activators | hit rate 0.31% among 410,000; also: potency is read from the fitted curve at half-maximal effect; % of control where 0% means no effect; nearly all actives have a fitted effect of over 65% in size
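For detection, Steady-Glo was added and plates sat 30 min at RT; before that, AREc32_Fluc cells grown overnight in OPTI-MEM/5% FBS had been treated with 23 nL compound for 24 hr at 37 deg C.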
IL2 activator = IL-2 activation. IL-2 activation reporter assay, cell-based qHTS; stimulated with anti-CD3/CD4/CD28 beads; in transgenic mouse T cells. activation, % (series mostly up to about 46 µM). hit rate 0.065% among 360,000; in the data active = activation above about 50%; inconclusive = mostly about 30% to 49%; also: 0% is about no effect
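Readout is EGFP and DsRed signal by fluorescent plate cytometry after 18 h at 37 degrees C. Transgenic mouse T cells (750/well) received compound for 60 min before bead stimulation (anti-CD3, anti-CD4, anti-CD28); memory T cells served as non-tolerant control.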
A549 viability = counter-screen for Nrf2 inhibitors: cytotoxicity in A549 cells | A549 ARE-Fluc cells, CellTiter-Fluor viability, 18-24 h | AID 504648 | Potency, µM (highest dose often 46 µM), without a hit: at the top dose activity change, negative = cytotoxicity, actives largely listed as inhibitors | hit rate 0.16% among 390,000; also: potency is read from the fitted curve at half-maximal effect; % is scaled to controls: 0 for no effect and ±100 for the full control effect
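Cytotoxicity counterscreen: CellTiter-Fluor fluorescence was measured in A549 ARE_Fluc cells after 18-24 h of compound exposure in a concentration series. The subsequent BugLite luminescent read reports ARE-luciferase activity.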
ClpP inh valid = inhibits B. subtilis ClpP protease, hit validation. shares compounds with ClpP mod. hit rate 40% among 470. AID 743245. purified B. subtilis ClpP, FRET-FV substrate cleavage, 20 min. Potency, µM (highest dose often 57.5 µM), for the others: at the highest dose activity change, negative = inhibition, usual class: inhibitors; also: potency is read from the fitted curve at half-maximal effect; % is scaled to controls: 0 for no effect and ±100 for the full control effect; nearly all actives have a fitted effect of over 70% in size
* = called active by the depositor; [ ] = remark or other dose. Unless noted, calls follow the shape of the dose curve; as a rule, active = well fitted curve in the direction sought with a large enough effect; inconclusive = small, poorly fitted or top-dose-only effect, or another doubt; inactive = no such curve, though single readings can be large; an effect the other way counts as inactive or inconclusive.

Preview:
For COc1ccc(N2CCc3c(C)nc4c(OC)cccc4c32)cc1 the results were miR-21 FLuc inconclusive, Nrf2 block 14%, ClpP mod -4%, Nrf2 activator 1%, IL2 activator -3 and A549 viability -17%.
Screening CCn1c(-c2cccs2)nc2ccccc21 returned miR-21 FLuc -35%, Nrf2 block 3%, ClpP mod 3.2µM*, Nrf2 activator 9%, IL2 activator 0, A549 viability 0% and ClpP inh valid 14µM*.
`CC1CCN(c2nn3c(=O)c(C(=O)NC(C)C)cnc3s2)CC1` gave miR-21 FLuc -7%, Nrf2 block inconclusive, ClpP mod 4%, Nrf2 activator 0% and A549 viability 2%.

The whole of this part, previewed entries included:
For COc1ccc(N2CCc3c(C)nc4c(OC)cccc4c32)cc1 the results were miR-21 FLuc inconclusive, Nrf2 block 14%, ClpP mod -4%, Nrf2 activator 1%, IL2 activator -3 and A549 viability -17%.
Screening CCn1c(-c2cccs2)nc2ccccc21 returned miR-21 FLuc -35%, Nrf2 block 3%, ClpP mod 3.2µM*, Nrf2 activator 9%, IL2 activator 0, A549 viability 0% and ClpP inh valid 14µM*.
`CC1CCN(c2nn3c(=O)c(C(=O)NC(C)C)cnc3s2)CC1` gave miR-21 FLuc -7%, Nrf2 block inconclusive, ClpP mod 4%, Nrf2 activator 0% and A549 viability 2%.
O=C(NCc1ccccc1)C(c1ccccc1)n1c(=O)c(-c2cc3ccccc3[nH]2)nc2ccccc21 (stereo unspecified) was read as ClpP mod 3% and IL2 activator 1.
COc1ccc(NC(=O)C(c2cc3ccccc3o2)n2c(=O)c(-c3cc4ccccc4[nH]3)nc3ccccc32)cc1 (stereo unspecified) was read as ClpP mod 33%, IL2 activator 5 and ClpP inh valid -2%.
COc1ccc(NC(=O)C(c2ccc(OC)cc2)n2c(=O)c(-c3cc4ccccc4[nH]3)nc3ccccc32)cc1 (stereo unspecified) was read as ClpP mod 19% and IL2 activator 1.
`O=C(NCc1ccccc1)C(c1cc2ccccc2o1)n1c(=O)c(-c2cc3ccccc3[nH]2)nc2ccccc21` (stereo unspecified) gave ClpP mod 38%, IL2 activator 0 and ClpP inh valid -4%.
COCc1cc(C)nc2sc3c(=O)n(-c4cc(C)ccc4C)nnc3c12 was read as miR-21 FLuc 9%, Nrf2 block -2%, ClpP mod 1%, Nrf2 activator 0% and A549 viability -1%.
Cc1ccc(NC(=O)c2ccc(-c3ccccc3)s2)cc1 was read as miR-21 FLuc -60%, Nrf2 block inconclusive, ClpP mod 47%, Nrf2 activator 6%, A549 viability -4% and ClpP inh valid -9%.
`C=C1CC2C(=O)N(Cc3ccccc3)C(C(=O)O)C1N2C(=O)OC(C)(C)C` (stereo unspecified) gave Nrf2 block 12% and A549 viability 0%.
CC(=O)N1CCc2c(sc(NC(=O)C3CCCN3S(=O)(=O)c3cccs3)c2C(N)=O)C1 (stereo unspecified) was read as Nrf2 block inconclusive, ClpP mod 4µM*, Nrf2 activator 3%, IL2 activator 3, A549 viability -7% and ClpP inh valid -28%.
For COc1cc(NC(=O)CN2C(=O)c3ccccc3Sc3ccc(C(=O)N4CCCC4)cc32)cc(OC)c1 the results were miR-21 FLuc -5%, ClpP mod -2%, Nrf2 activator 14% and A549 viability -3%.
`O=C(Nc1cccc(Cl)c1Cl)c1cc(S(=O)(=O)NCc2ccc3c(c2)OCO3)ccc1F` gave miR-21 FLuc -4%, ClpP mod 56%, Nrf2 activator -1%, A549 viability 3% and ClpP inh valid inconclusive.
`COc1ccc2c(=O)c(-c3ccc(OC)c(OC)c3)coc2c1` gave miR-21 FLuc -51%, Nrf2 block 6%, ClpP mod 3%, Nrf2 activator 4%, IL2 activator 0 and A549 viability -14%.
For COc1ccc(-c2coc3cc(OC(C)=O)c(OC)cc3c2=O)cc1 the results were Nrf2 block -28%, ClpP mod 34%, Nrf2 activator 5%, IL2 activator 1, A549 viability 2% and ClpP inh valid -6%.
For COc1ccc(S(=O)(=O)c2c(SC)nn(Cc3ccccc3C)c2NC(C)=O)cc1 the results were miR-21 FLuc -2%, Nrf2 block inconclusive, ClpP mod 0%, Nrf2 activator 3% and A549 viability 13%.
Cc1cccc(NC(=O)c2ccc(CN3CC(=O)N4CCCCC4C3=O)cc2)c1C (stereo unspecified) was read as miR-21 FLuc 6%, Nrf2 block -5%, ClpP mod -2%, Nrf2 activator 1% and A549 viability 5%.
Screening CCCS(=O)(=O)N1CC(=O)N(c2ccc(Cl)cc2C)C(C)(C(=O)NC2CCCC2)C1 (stereo unspecified) returned miR-21 FLuc -4%, Nrf2 block inconclusive, ClpP mod 3%, Nrf2 activator 2% and A549 viability 14%.
Screening Cc1ccccc1C(=O)Nc1cccc(NC(=O)c2ccc(-c3ccc(Br)cc3)o2)c1 returned miR-21 FLuc -5%, Nrf2 block -29%, ClpP mod 139%, Nrf2 activator 0%, IL2 activator 11, A549 viability -17% and ClpP inh valid inconclusive.
For Cc1cccc(NC(=O)c2ccccc2C(=O)Nc2cccc(C)c2)c1 the results were Nrf2 block 5%, ClpP mod 168%, Nrf2 activator -1%, IL2 activator -6, A549 viability -6% and ClpP inh valid -2%.
For CN1CCN(c2ccc(NC(=O)c3ccc(-c4ccc(Br)cc4)o3)cc2)CC1 the results were miR-21 FLuc inconclusive, Nrf2 block -6%, Nrf2 activator 10%, IL2 activator 0 and A549 viability inconclusive.
For O=C1CC(c2ccccc2)Cc2nc3nc(C(F)(F)F)nn3cc21 (stereo unspecified) the results were miR-21 FLuc -3%, Nrf2 block 3%, ClpP mod 79%, Nrf2 activator -1%, IL2 activator -1, A549 viability -8%[1.84 µM] and ClpP inh valid 24%.
`CSc1nc2nc3c(cn2n1)C(=O)CC(c1ccccc1)C3` (stereo unspecified) gave miR-21 FLuc -5%, Nrf2 block -15%, ClpP mod 1%, Nrf2 activator 0%, IL2 activator 3 and A549 viability 1%.
Screening COc1ccccc1NC(=O)c1cc2c(-c3ccccc3)nn(-c3ccccc3)c2s1 returned miR-21 FLuc -16%, Nrf2 block -29%, ClpP mod 4%, Nrf2 activator -1% and A549 viability -6%.
